Reference: patent US11426395B2, “PSMA inhibitor derivatives for labelling with 99mTc via HYNIC, a radiopharmaceutical kit, radiopharmaceutical preparations and their use in prostate cancer diagnostics” (Narodowe Centrum Badan Jadrowych, Osrodek Radioizotopow …, priority 2019, dated 2022)

Assay: Solubility according to Ph. Eur.

Question: For “Benzenesulfonic acid hydrazone of PSMA-T4”, which “Solubility according to Ph. Eur.” value (ethanol) is on record?
Answer: Its value is “ethanol: soluble”.

Question: And the “Solubility according to Ph. Eur.” value (pH 7.4 phosphate buffer)?
Answer: Its value is “soluble”.

Question: And the “Solubility according to Ph. Eur.” value (water)?
Answer: Its value is “water: soluble”.
